These results are taken from paper PMC6076264, “Visualization of translation termination intermediates trapped by the Apidaecin 137 peptide during RF3-mediated recycling of RF1” (Nature Communications, 2018).

This test deals with ribosomal protein bL19 (E. coli (endogenous in ribosomes of …)). Briefly: cryo-EM structure; 70S-tRNA(fMet) complexes on start-stop mRNA with 2.5x RF1-GAQ and 50 uM API, then 7.5x RF3-GDPCP; buffer A (30 mM HEPES pH 7.4, 70 mM NH4Cl, 5 mM MgCl2, 30 mM KCl); states I-IV at 3.8-3.9 A and RF3-70S. To be noted: both partners purified.

B1: RF3 (release factor 3), bound to GDPCP (natural protein)
chain: MTLSPYLQEVAKRRTFAIISHPDAGKTTITEKVLLFGQAIQTAGTVKGRGSNQHAKSDWMEMEKQRGISITTSVMQFPYHDCLVNLLDTPGHEDFSEDTYRTLTAVDCCLMVIDAAKGVEDRTRKLMEVTRLRDTPILTFMNKLDRDIRDPMELLDEVENELKIGCAPITWPIGCGKLFKGVYHLYKDETYLYQSGKGHTIQEVRIVKGLNNPDLDAAVGEDLAQQLRDELELVKGASNEFDKELFLAGEITPVFFGTALGNFGVDHMLDGLVEWAPAPMPRQTDTRTVEASEDKFTGFVFKIQANMDPKHRDRVAFMRVVSGKYEKGMKLRQVRTAKDVVISDALTFMAGDRSHVEEAYPGDILGLHNHGTIQIGDTFTQGEMMKFTGIPNFAPELFRRIRLKDPLKQKQLLKGLVQLSEEGAVQVFRPISNNDLIVGAVGVLQFDVVVARLKSEYNVEAVYESVNVATARWVECADAKKFEEFKRKNESQLALDGGDNLAYIATSMVNLRLAQERYPDVQFHQTREH
notes: Peptide chain release factor RF3, translational GTPase, E. coli; pre-incubated with 1 mM GDPCP; also called RF3-GDPCP
Regarding B1, the binding result was “binds”.
